Data: ChEMBL document CHEMBL1221353, “Synthesis and evaluation of amides surrogates of dopamine D3 receptor ligands” (Bioorg Med Chem Lett, 2010)

By UniProt entry, the sequences of proteins in these tests, tags left out.
UniProt P35462, whole entry: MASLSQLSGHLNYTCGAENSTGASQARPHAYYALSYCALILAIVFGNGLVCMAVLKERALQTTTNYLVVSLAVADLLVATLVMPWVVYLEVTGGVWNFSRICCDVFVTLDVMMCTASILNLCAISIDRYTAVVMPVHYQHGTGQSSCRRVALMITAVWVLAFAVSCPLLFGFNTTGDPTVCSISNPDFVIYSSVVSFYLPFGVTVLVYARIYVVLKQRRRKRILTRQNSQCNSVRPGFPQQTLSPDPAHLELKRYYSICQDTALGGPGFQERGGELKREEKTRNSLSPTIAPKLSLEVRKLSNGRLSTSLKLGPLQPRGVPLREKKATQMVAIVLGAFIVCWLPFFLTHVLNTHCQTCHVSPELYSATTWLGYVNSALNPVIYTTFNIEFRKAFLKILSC

These compounds were tested against D(3) dopamine receptor (Homo sapiens, UniProt P35462) (assay: biochemical).

Structure (SMILES) | Ki [nM]
Clc1cccc(N2CCN(CCCCNc3ccccn3)CC2)c1Cl | 0.4
COc1ccccc1N1CCN(CCCCNc2ccc3ccccc3n2)CC1 | 5.6
Clc1cccc(N2CCN(CCCCNc3nccc4ccccc34)CC2)c1Cl | 3.1
